According to US11635434B2, “Betaretrovirus epitopes and related methods of use” (priority 2018, dated 2023):

Test system: human betaretrovirus (HBRV)
Experiment: Combination antiretroviral therapy (cART) in PBC patients
Assay type: in vivo
Settings: randomized controlled trial, terminated early
Description: Ursodeoxycholic acid (UDCA) is often considered the standard of care for PBC treatment and acts as a choleretic agent to ameliorate the toxic effects of bile within the liver. […] Combination anti-retroviral therapy (cART) may also provide potential adjunctive therapy to UDCA non-responders. […] Those able to tolerate cART, however, developed marked improvement in hepatic biochemistry and HBRV levels in the open label extension study.
Referring to FIG. 1B, this LT recipient developed severe recurrent PBC unresponsive to UDCA and changes in immunosuppression.

lopinavir-ritonavir
tolerability: poor tolerability
